{"source": "patent US20250064843A1", "about": "“METHOD AND MEDICAMENT FOR TREATING AMYOTROPHIC LATERAL SCLEROSIS” (4B TECHNOLOGIES (BEIJING) CO., LIMITED, priority 2021, published 2025)", "origin": "cited, not measured here", "tested_on": "ALS patients", "data": [{"smiles": "Nc1nc2ccc(OC(F)(F)F)cc2s1", "note": "[riluzole]", "values": [{"measurement": "extending survival", "result": "2-3 months"}]}]}
